Reference: US7939341B2, “Membrane arrays and methods of manufacture” (Corning Incorporated, priority 2004, dated 2011)

Chains of the proteins cited; added tags and fusions are not shown.
UniProt P35372, whole entry: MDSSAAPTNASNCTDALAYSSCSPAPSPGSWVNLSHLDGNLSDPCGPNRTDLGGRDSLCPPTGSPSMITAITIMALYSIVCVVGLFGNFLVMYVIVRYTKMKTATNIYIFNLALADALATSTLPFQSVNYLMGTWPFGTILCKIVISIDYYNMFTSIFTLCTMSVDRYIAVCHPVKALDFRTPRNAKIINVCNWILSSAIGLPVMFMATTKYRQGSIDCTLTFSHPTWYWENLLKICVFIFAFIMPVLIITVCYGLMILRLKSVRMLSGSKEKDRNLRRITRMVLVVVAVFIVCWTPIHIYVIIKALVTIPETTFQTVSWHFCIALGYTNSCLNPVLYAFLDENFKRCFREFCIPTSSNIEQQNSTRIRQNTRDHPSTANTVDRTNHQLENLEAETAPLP

Molecular target: opioid receptor mu subtype (Opioid Mu) (Homo sapiens, UniProt P35372)
Conditions: agonist at 1 μM; 10 nM Eu-GTP, 3 μM GDP; 1 hour incubation; Opioid Mu microspots on porous slide; time-resolved fluorescence

Substance: dynorphin A
- binding of EuGTP to the GPCR microspots (receptor activation by agonist): increase the binding of EuGTP
